Earlier results, collected in patent publication US8124634B2, “CB1 receptor modulators” (7TM Pharma A/S, priority 2006, dated 2012).

Amino acid sequences for entries named in this document (tags omitted).
UniProt P47746, whole entry: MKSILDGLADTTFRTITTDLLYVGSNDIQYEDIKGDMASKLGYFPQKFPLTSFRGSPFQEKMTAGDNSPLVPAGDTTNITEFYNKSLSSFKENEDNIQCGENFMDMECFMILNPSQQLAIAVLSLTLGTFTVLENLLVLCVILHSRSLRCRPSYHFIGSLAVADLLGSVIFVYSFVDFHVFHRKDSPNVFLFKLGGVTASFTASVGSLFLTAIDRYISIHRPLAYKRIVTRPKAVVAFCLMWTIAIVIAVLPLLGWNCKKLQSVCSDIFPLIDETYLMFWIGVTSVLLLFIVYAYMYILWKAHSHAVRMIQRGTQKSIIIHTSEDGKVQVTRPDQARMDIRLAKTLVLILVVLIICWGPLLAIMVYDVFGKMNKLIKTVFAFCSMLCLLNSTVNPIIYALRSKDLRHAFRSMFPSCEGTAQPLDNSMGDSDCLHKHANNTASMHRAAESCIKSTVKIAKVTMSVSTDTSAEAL

Biological target: CB1 (cannabinoid receptor 1) (Mus musculus, UniProt P47746)
Conditions: cited from earlier work

Cc1c(C(=O)NN2CCCCC2)nn(-c2ccc(Cl)cc2Cl)c1-c1ccc(Cl)cc1 [Rimonabant]
effect in the gastrointestinal transit model: clear dose dependent effect
